# AlphaSeq binding of Ab-91 heavy chain variants to a spike HR2 peptide

Reference: Engelhart et al. 2022, doi:10.1038/s41597-022-01779-4. File: FLAb, binding data.

Target: peptide PDVDLGDISGINAS, taken from heptad repeat 2 (HR2) of SARS-CoV-2 spike.

Each scFv is VL, three GGGGS repeats, VH, as in the parent Ab-91, and differs from it in the CDRs of the heavy chain only.
VL: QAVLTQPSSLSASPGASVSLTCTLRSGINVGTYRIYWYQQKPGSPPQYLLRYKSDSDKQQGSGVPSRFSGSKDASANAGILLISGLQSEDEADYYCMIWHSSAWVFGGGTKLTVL
VH: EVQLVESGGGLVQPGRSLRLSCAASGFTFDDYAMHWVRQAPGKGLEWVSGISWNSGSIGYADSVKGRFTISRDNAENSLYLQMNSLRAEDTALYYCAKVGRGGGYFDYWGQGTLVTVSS

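The parent was found by panning a naive human phage display library on the peptide. Variants in AAYL51 differ from the parent at up to three CDR positions; double and triple changes were sampled at random. Affinity was read by AlphaSeq, a pooled yeast mating assay with surface-displayed partners. The frequency of each diploid, read from paired DNA barcodes, reflects how well the two displayed proteins bind. Each replicate has its own calibration line, from reference interactions of the BCL2 family. Mating was done three times.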

Variants are written as CDR1, CDR2 and CDR3 of the heavy chain (limits as in the source). Parent: GFTFDDYAMH, GISWNSGSIGYADSVK, VGRGGGYFDY.
Scale: log10 of Kd in nM, estimated from mating counts; low values are strong binders.
Where no diploid with the target was found in that replicate, the entry reads "n.d.": below detection, most likely a poor binder, though not proof of it.
Nonspecific signal, from three strains lacking the peptide, appeared in 21% of pairings of library AAYL51, centred on 4.54 (5% of these signals below 3.26); values are not corrected for it. Also given: how often the same scFv was detected with the empty control strains, with their mean in brackets.

CDR-H1,CDR-H2,CDR-H3,log10 Kd (nM) by replicate,control signals
GFTFDDYAMH,GISWNSGSIGYADSGK,VGRGGSYFDR,n.d. / n.d. / n.d.,0/9
GFTSDDYAMH,GIAWNSGSIGYADSVK,VGRGGGYFDH,4.87 / 4.28 / 4.93,5/9 (4.79)
GFLFGDYAMH,GISWNSGSIGYADSVY,VGRGGGYFDY,1.07 / 1.07 / 0.58,1/9 (3.45)
GFTFDDYAMH,GNSWNSGSIGYADSVK,VKRAGGYFDY,n.d. / n.d. / n.d.,3/9 (4.35)
GFTFFDYAMH,GISWNSGSIGYANSVK,VGRGGIYFDY,n.d. / n.d. / n.d.,0/9
GSTFDDYAMH,GISWNSTSIGYADSVK,VGRGGGWFDY,4.26 / 5.86 / n.d.,1/9 (2.96)
GATFDDYAMH,GISWNSRSIGYADSVK,VPRGGGYFDY,n.d. / n.d. / n.d.,1/9 (3.31)
GFTFDDYAMH,GISWNSGSRGYADSVV,VGRGGGYFSY,5.76 / 5.73 / n.d.,6/9 (4.83)
GFTFDDYAMH,GISHNSGSYGYAVSVK,VGRGGGYFDY,n.d. / n.d. / n.d.,0/9
GFTFDDYAMR,GISWNSGSKGYYDSVK,VGRGGGYFDY,n.d. / n.d. / n.d.,0/9
GFTFDDYAMH,GISWSSGCIGYADSVM,VGRGGGYFDY,4.60 / 5.44 / 5.12,2/9 (5.27)
GFTFDVYAMH,GVSWNSGSIGYLDSVK,VGRGGGYFDY,n.d. / 4.40 / 4.22,1/9 (2.16)
GFTFDDYAMH,GISWNSGSIGYADSVQ,VWRGGGYEDY,n.d. / n.d. / n.d.,0/9
GFTFVDYAMH,GISWNSGSIGYADSVK,VGQGGGKFDY,2.45 / 2.66 / 2.82,7/9 (4.71)
GFTEDDYAMH,GIFWNSGSIGYADSVK,VGRGGGYFDY,4.85 / n.d. / 6.26,9/9 (5.29)
GFTFDDYAMH,GPSWQSGSIGYADSVK,VGRGTGYFDY,3.70 / n.d. / n.d.,0/9
YFCFDIYAMH,GISWNSGSIGYADSVK,VGRGGGYFDY,4.64 / n.d. / 3.44,0/9
GFTFDDYAMH,GIRWNSGSIGYADSVK,VHRGGGYFDY,n.d. / n.d. / n.d.,0/9
GFCQDDYAMH,GISWYSGSIGYADSVK,VGRGGGYFDY,n.d. / 4.05 / n.d.,1/9 (4.98)
GTTFDDYAMH,GISWNSGSIGYACSVK,VGRTGGYFDY,n.d. / n.d. / n.d.,2/9 (3.97)
GFTFGDYAMH,GISWNSGSIGHADSVK,VGRWGGYFDY,n.d. / n.d. / n.d.,0/9
GFTFDDYAMH,GISWNSGSIGYACSVK,VGRGGGYLDY,5.84 / 3.44 / 3.30,0/9
GFTFDCYAMH,GISWNSGSIGYADSVK,VGRNGGYFDY,3.50 / n.d. / n.d.,1/9 (3.65)
GFTFDDYAMH,GISWNSGSITYADGVK,TGRGGGYFDY,n.d. / n.d. / n.d.,0/9
GFTFDDYAME,GISWNSDSIGYVDSVK,VGRGGGYFDY,4.33 / 4.01 / 3.35,1/9 (3.80)
GCTFDDYAMH,GISWNSGSIGYADSVK,VGRGGPYFGY,5.61 / n.d. / n.d.,3/9 (5.20)
GNTFDDYAMH,GISWWSGSIGYADSVK,VGRRGGYFDY,n.d. / n.d. / n.d.,1/9 (3.67)
GFTHDDYMMH,GISYNSGSIGYADSVK,VGRGGGYFDY,5.82 / n.d. / n.d.,4/9 (4.79)
MFTFDDYATH,GISWNSGSIPYADSVK,VGRGGGYFDY,n.d. / n.d. / n.d.,2/9 (4.45)
GKTFDDYAMH,GTSWNSGSIGYADSVK,VGRGNGYFDY,7.06 / 5.67 / 5.27,7/9 (5.20)
GWTFDDYAEH,GISDNSGSIGYADSVK,VGRGGGYFDY,n.d. / n.d. / n.d.,1/9 (4.30)
GFTFPDYARH,GISWNSGSIGYADSGK,VGRGGGYFDY,5.62 / 5.76 / 5.64,8/9 (5.30)
GNTFDDHAMH,GISWNCGSIGYADSVK,VGRGGGYFDY,4.11 / n.d. / n.d.,2/9 (3.93)
GFTFDDYAMH,GISWNSGHIGKADSVK,VGRGGGYFHY,n.d. / 4.52 / 4.80,5/9 (4.97)
GFTFDDYAMH,GASWNSGSIGYADSTK,VGRGGWYFDY,4.41 / n.d. / 4.62,1/9 (3.34)
GFKFDTYAMH,GISWNSGSIGYDDSVK,VGRGGGYFDY,1.40 / 1.03 / 0.53,4/9 (5.47)
GFTFNDYAHH,GISWNSGSIGYADSVK,VGRGGGYPDY,4.40 / 6.14 / 4.66,5/9 (4.74)
CFTFDDYAMH,GISWNSGSIGYADSVY,VGNGGGYFDY,n.d. / 5.55 / n.d.,4/9 (4.97)
GFTFDDYAMH,GCSWNSNSIGKADSVK,VGRGGGYFDY,n.d. / n.d. / n.d.,1/9 (5.45)
GFTFDDYAMH,GISWNSCSIGYAYSVK,VGRGGGSFDY,1.47 / 1.58 / 1.18,4/9 (3.75)
GFTFDDYAMH,GISWNSGSIGYADSVK,VIGGGGYFDW,n.d. / n.d. / n.d.,1/9 (4.28)
GFTFDDYAPH,GISWNSGSIGYADCVK,VGRDGGYFDY,4.70 / 5.96 / n.d.,1/9 (6.31)

Excerpt, the final 5 entries:

CDR-H1	CDR-H2	CDR-H3	log10 Kd (nM) by replicate	control signals
CFTFDDYAMH	GISWNSGSIGYADSVY	VGNGGGYFDY	n.d. / 5.55 / n.d.	4/9 (4.97)
GFTFDDYAMH	GCSWNSNSIGKADSVK	VGRGGGYFDY	n.d. / n.d. / n.d.	1/9 (5.45)
GFTFDDYAMH	GISWNSCSIGYAYSVK	VGRGGGSFDY	1.47 / 1.58 / 1.18	4/9 (3.75)
GFTFDDYAMH	GISWNSGSIGYADSVK	VIGGGGYFDW	n.d. / n.d. / n.d.	1/9 (4.28)
GFTFDDYAPH	GISWNSGSIGYADCVK	VGRDGGYFDY	4.70 / 5.96 / n.d.	1/9 (6.31)